Results published in BindingDB's records for doi:10.1007/s00044-008-9094-3 (The Medical University of Warsaw, 2008).

Chains of the proteins cited; added tags and fusions are not shown.
UniProt P19327, whole entry: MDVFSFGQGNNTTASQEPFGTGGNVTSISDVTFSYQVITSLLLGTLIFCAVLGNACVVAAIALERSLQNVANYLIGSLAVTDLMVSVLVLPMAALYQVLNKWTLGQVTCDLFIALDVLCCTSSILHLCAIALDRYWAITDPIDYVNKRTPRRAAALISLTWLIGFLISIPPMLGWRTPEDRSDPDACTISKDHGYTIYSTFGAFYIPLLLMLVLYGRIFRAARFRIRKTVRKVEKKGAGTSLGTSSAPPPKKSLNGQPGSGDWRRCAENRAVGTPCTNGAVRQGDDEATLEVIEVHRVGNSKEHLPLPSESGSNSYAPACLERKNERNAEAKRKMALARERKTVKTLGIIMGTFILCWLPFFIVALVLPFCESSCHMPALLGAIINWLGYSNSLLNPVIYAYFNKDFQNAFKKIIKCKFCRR

Target: 5-hydroxytryptamine receptor 1A (Rattus norvegicus, UniProt P19327)
Experiment: Binding Assay

**Q.** With `NCCc1c[nH]c2ccc(O)cc12` [[3H]-5-HT] as the molecule, how does the Ki read?
**A.** Its Ki is 90 nM.
